Test system: βAPP
Experiment: βAPP levels in brain cortex and CSF of transgenic mice
Assay type: in vivo
Conditions: 2.5 mg/kg i.p., once daily for 3 weeks
Procedure: Greater reductions could be achieved, but, as previously reported, doses of >5 mg/kg produce cholinergic side effects for the (−)-enantiomer but not for the (+)-enantiomer.

## CN1CC[C@@]2(C)c3cc(OC(=O)Nc4ccccc4)ccc3N(C)[C@@H]12 [(−)-phenserine]
  reduction of βAPP levels in cerebral cortex: 10%

— patent US8691864B2, “Agents useful for reducing amyloid precursor protein and treating dementia and methods of use thereof” (priority 2000, dated 2014)
